Measured values taken from patent publication US20060094778A1, “Vesicant treatment with phenyl-phenyl type vitamin d receptor modulators” (published 2006).
pEC50, pIC50: −log10 of the molar value. Values joined by “and” are separate entries in the source; they are usually repeats but may differ in a detail not shown here. Identical values can stand only once.

By UniProt entry, the sequences of proteins in these tests, tags left out. Residues count along the entry.
UniProt P11473, 127-423 limits assumed: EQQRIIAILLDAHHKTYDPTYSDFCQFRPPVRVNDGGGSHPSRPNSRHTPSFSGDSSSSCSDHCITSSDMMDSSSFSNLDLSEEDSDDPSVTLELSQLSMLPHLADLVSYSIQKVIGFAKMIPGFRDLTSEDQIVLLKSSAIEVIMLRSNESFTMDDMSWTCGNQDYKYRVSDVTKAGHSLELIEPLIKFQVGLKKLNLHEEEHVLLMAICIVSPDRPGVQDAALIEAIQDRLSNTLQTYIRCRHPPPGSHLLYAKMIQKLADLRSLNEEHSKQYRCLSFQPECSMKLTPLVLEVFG

Tests used:
VDR = VDR (Homo sapiens, UniProt P11473); test: VDR CTF Caco-2 cell co-transfection assay; conditions: read-out: VDR EC50 (nM) (Caco-2 cells); Caco-2 cells transfected with pGal4-VDR-LBD and pFRLuc; luciferase; surrogate for in vivo calcemic activity
RXR-VDR heterodimer = RXR-VDR heterodimer (Homo sapiens, UniProt P11473); test: RXR-VDR heterodimerization assay (SaOS-2 cells); conditions: read-out: RXR-VDR heterodimer EC50, Gal4-RXR-DEF, VP16-VDR-LBD and pFR-LUC reporter, luciferase
KERtr cells = test: Keratinocyte proliferation assay; conditions: read-out: Kera. Prolif. IC50, 72 hr, BrdU incorporation
female DBF mice = test: Mouse hypercalcemia assay; conditions: orally via gavage for 6 days; serum ionized calcium 6 hours after the last dosing; six day hypercalcemia test

With `CCC(CC)(c1ccc(OCC(O)C(C)(C)C)c(C)c1)c1ccc(C(=O)O)c(Cl)c1` (racemic) the EC50 (VDR) was 979 nM, the pEC50 (RXR-VDR heterodimer) was 6.52 and 6.69 and the pIC50 (KERtr cells) was 6.29.
With `CCC(CC)(c1ccc(OCC(=O)C(C)(C)C)c(C)c1)c1ccc(C(=O)NCCS(C)(=O)=O)c(C)c1` the “Mouse Hypercal” value (female DBF mice) was >5000 µg/kg/day.
`CCC(CC)(c1ccc(/C=C/C(=O)N(C)C)c(C)c1)c1ccc(OCC(O)C(C)(C)C)c(C)c1` (stereo not drawn) was tested, and the EC50 (VDR) was 4 nM and the pEC50 (RXR-VDR heterodimer) was 8.40.
In the case of `CCC(CC)(c1ccc(OCC(O)C(C)(C)C)c(C)c1)c1ccc(C(=O)N[C@H](C)C(=O)O)c(C)c1` (stereo partly drawn), the EC50 (VDR) was 303 nM, the “Mouse Hypercal” value (female DBF mice) was <300 µg/kg/day and the pIC50 (KERtr cells) was 7.60.
In the case of 1α,25-dihydroxyvitamin D3, the “Mouse Hypercal” value (female DBF mice) was 0.06 µg/kg/day.
In the case of `CCC(CC)(c1ccc(COCC(=O)O)c(C)c1)c1ccc(OCC(O)C(C)(C)C)c(C)c1` (single isomer, unassigned), the EC50 (VDR) was 418 nM, the “Mouse Hypercal” value (female DBF mice) was <300 µg/kg/day and the pIC50 (KERtr cells) was 8.22.
In the case of `CCC(CC)(c1ccc(OC[C@@H](O)C(C)(C)C)c(C)c1)c1ccc(C(=O)NCCS(C)(=O)=O)c(C)c1`, the “Mouse Hypercal” value (female DBF mice) was 3000 µg/kg/day.
`CCC(CC)(c1ccc(OCC(O)C(C)(C)C)c(C)c1)c1ccc(C(=O)NC(C)(C)C(=O)O)c(C)c1` (single isomer, unassigned) was tested, and the EC50 (VDR) was 101 nM, the “Mouse Hypercal” value (female DBF mice) was 300 µg/kg/day and the pIC50 (KERtr cells) was 8.52.
For `CCC(CC)(c1ccc(CCC(=O)N(C)C)c(C)c1)c1ccc(OCC(O)C(C)(C)C)c(C)c1` (stereo not drawn), the EC50 (VDR) was 35 nM, the pEC50 (RXR-VDR heterodimer) was 9.00 and the “Mouse Hypercal” value (female DBF mice) was 100 µg/kg/day. For the same compound, the pIC50 (KERtr cells) was 6.48.
For `CCC(CC)(c1ccc(CNCCS(C)(=O)=O)c(C)c1)c1ccc(OCC(=O)C(C)(C)C)c(C)c1`, the EC50 (VDR) was 1010 nM, the pEC50 (RXR-VDR heterodimer) was 7.66 and 7.52 and the “Mouse Hypercal” value (female DBF mice) was 3000 µg/kg/day.
`CCC(CC)(c1ccc(C(=O)O)cc1)c1ccc(OCC(O)C(C)(C)C)c(Cl)c1` (racemic) gave a pIC50 (KERtr cells) of 7.40.
For `CCC(CC)(c1ccc(OCC(=O)C(C)(C)C)c(C)c1)c1ccc(OCC(=O)C(C)(C)C)c(C)c1`, the “Mouse Hypercal” value (female DBF mice) was 1000 µg/kg/day.
For `CCC(CC)(c1ccc(C(=O)O)cc1)c1ccc(OCC(=O)C(C)(C)C)c(C)c1`, the EC50 (VDR) was 935 nM and the “Mouse Hypercal” value (female DBF mice) was 6000 µg/kg/day.
For `CCC(CC)(c1ccc(CCC(=O)O)c(C)c1)c1ccc(OCC(=O)C(C)(C)C)c(C)c1`, the EC50 (VDR) was 300 nM, the “Mouse Hypercal” value (female DBF mice) was 10 µg/kg/day and the pIC50 (KERtr cells) was 8.70.
Work on `CCC(CC)(c1ccc(CCC(=O)N(C)C)c(C)c1)c1ccc(OCC(=O)C(C)(C)C)c(C)c1` yielded an EC50 (VDR) of 63 nM and a pIC50 (KERtr cells) of 7.74.
In the case of `CCC(CC)(c1ccc(C(=O)O)c(C)c1)c1ccc(OCC(O)C(C)(C)C)c(Cl)c1` (racemic), the EC50 (VDR) was 863 nM and the pEC50 (RXR-VDR heterodimer) was 6.58 and 6.86.
`CCC(CC)(c1ccc(OC[C@@H](O)C(C)(C)C)c(C)c1)c1ccc(C(=O)NCC(=O)O)c(C)c1` gave an EC50 (VDR) of 368 nM and a pEC50 (RXR-VDR heterodimer) of 8.52.
In the case of `CCC(CC)(c1ccc(OC(C)C(O)C(C)(C)C)c(C)c1)c1ccc(C(=O)O)c(C)c1` (racemic), the EC50 (VDR) was 72 nM, the pEC50 (RXR-VDR heterodimer) was 6.77 and 6.47 and the pIC50 (KERtr cells) was 6.62.
`CCC(CC)(c1ccc(CCC(O)C(C)(C)C)c(C)c1)c1ccc(C(=O)O)c(C)c1` (racemic) gave an EC50 (VDR) of 920 nM and a pEC50 (RXR-VDR heterodimer) of 8.05.
With `CCC(CC)(c1ccc(OCC(O)CO)c(C)c1)c1ccc(OCC(O)C(C)(C)C)c(C)c1` (stereo not drawn) the “Mouse Hypercal” value (female DBF mice) was 20 µg/kg/day.
`CCC(CC)(c1ccc(OCC(=O)C(C)(C)C)c(C)c1)c1ccc(C(=O)O)c(C)c1` was tested, and the EC50 (VDR) was 990 nM, the “Mouse Hypercal” value (female DBF mice) was >3000 µg/kg/day and the pIC50 (KERtr cells) was 6.00.
`CCC(CC)(c1ccc(OCC(=O)C(C)(C)C)c(C)c1)c1ccc(OC[C@H](O)C(C)(C)C)c(C)c1` was tested, and the “Mouse Hypercal” value (female DBF mice) was 1000 µg/kg/day.
In the case of `CCC(CC)(c1ccc(CCC(=O)C(C)(C)C)c(C)c1)c1ccc(C(=O)O)c(C)c1`, the pEC50 (RXR-VDR heterodimer) was 6.40 and the “Mouse Hypercal” value (female DBF mice) was >3000 µg/kg/day.
`CCC(CC)(c1ccc(OCC(O)C(C)(C)C)c(C)c1)c1ccc(C(=O)NS(C)(=O)=O)c(C)c1` (stereo not drawn) was tested, and the EC50 (VDR) was 3000 nM and the “Mouse Hypercal” value (female DBF mice) was 100 µg/kg/day.
